# Experimental logP (octanol/water) values from OPERA 2.9

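The numbers are reported measurements, compiled and curated for the OPERA QSAR suite. One number stands for a compound and property, with no spread given. Method, purity and exact conditions of the single measurements are not given. A value may pool stereoisomers or salt forms, and the file does not say which form was measured. Unmarked limits or estimates from the upstream databases cannot be ruled out.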

logP is the log10 of the octanol-water partition coefficient; higher is more lipophilic.

| structure (SMILES) | log Kow |
|---|---|
| NCCOP(=O)(O)OCC(O)CO.O | -3.25 |
| CCCC(C)(C)OC(N)=O | 1.45 |
| Cc1ccc2c(C)cccc2c1 | 4.44 |
| N[C@@H](Cc1cc(Br)c(O)c(Br)c1)C(=O)O | 0.05 |
| CC1O[C@@H](O[C@H]2CC[C@]3(C)C4CC[C@]5(C)[C@@H](C6=CC(=O)OC6)CC[C@]5(O)C4CC[C@@H]3C2)CC(O)[C@@H]1O (some centres undefined) | 2.51 |
| COP(=O)(CCC(=O)NCO)OC | -1.68 |
| S=C(SSC(=S)N(Cc1ccccc1)Cc1ccccc1)N(Cc1ccccc1)Cc1ccccc1 | 3.7 |
| CN1CCCC[C@H]1c1cccnc1 | 0.96 |
| O=C(CCl)c1ccccc1 | 1.84 |
| CNCC(C)c1ccccc1 (centres undefined) | 2.28 |
| CC(=O)C=C(C)C | 1.7 |
| O=C1CC2OCC=C3CN4CCC56c7ccccc7N1C5C2C3CC46O (centres undefined) | 1.82 |
| ClC(Cl)c1ccccc1 | 3.22 |
| c1cncc(CC2CCCCN2)c1 (centres undefined) | 1.49 |
| NCC(CC(=O)O)c1ccc(F)cc1 (centres undefined) | -1.6 |
| Cc1cccc(C[N+](C)(C)C)c1.[Br-] | -1.99 |
| Clc1ccc2c(c1)Oc1cc(Cl)c(Cl)c(Cl)c1O2 | 6.9 |
| CC1=NCCc2c1[nH]c1cc(O)ccc21 | 2.19 |
| CCN(CC)CCO | 0.21 |
| CC[C@@H](CO)NC(=O)[C@@H]1C=C2c3cccc4[nH]cc(c34)C[C@H]2N(C)C1 | 1.2 |
| C=CCc1ccccc1O | 2.55 |
| C[N+](C)(C)Cc1cccc(Br)c1.[Br-] | -1.81 |
| CC(C)CCOC(=O)Cc1ccccc1 | 4.08 |
| Cl.ClCCN1CCCC1 | 0.736 |
| O=CC=O | -1 |
| Cc1cccc(N)c1C | 2.005 |
| COc1ccc2c3c1O[C@H]1C(=O)CC[C@H]4[C@@H](C2)N(C)CC[C@]314 | 1.2 |
| Nc1ccc(-c2ccc(N)c(N)c2)cc1N | 0.09 |
| Brc1c(Br)c(Br)c(Oc2c(Br)c(Br)c(Br)c(Br)c2Br)c(Br)c1Br | 6.27 |
| Cl.Cl.NNCc1ccccc1 | 0.46 |
| C[C@]12C[C@H]3O[C@H]3CC1CCC1C2CC[C@]2(C)C(=O)[C@@H](N3CCCC3)CC12 (some centres undefined) | 3.2 |

The last 5 entries again:

{"smiles": "COc1ccc2c3c1O[C@H]1C(=O)CC[C@H]4[C@@H](C2)N(C)CC[C@]314", "log Kow": "1.2"}
{"smiles": "Nc1ccc(-c2ccc(N)c(N)c2)cc1N", "log Kow": "0.09"}
{"smiles": "Brc1c(Br)c(Br)c(Oc2c(Br)c(Br)c(Br)c(Br)c2Br)c(Br)c1Br", "log Kow": "6.27"}
{"smiles": "Cl.Cl.NNCc1ccccc1", "log Kow": "0.46"}
{"smiles": "C[C@]12C[C@H]3O[C@H]3CC1CCC1C2CC[C@]2(C)C(=O)[C@@H](N3CCCC3)CC12", "stereo": "some centres undefined", "log Kow": "3.2"}

Data: OPERA 2.9 data sets, kmansouri/OPERA on GitHub.